{"source": "patent US9707318B2", "about": "“Compositions of novel bone patch in bone and vascular regeneration” (priority 2009, dated 2017)", "origin": "cited, not measured here", "tested_on": "spine fusion"}
{"substance": "BMP-2: BMP-2 (Infuse), bone morphogenetic protein used in spine fusion studies", "values": [{"measurement": "fusion rate", "setting": "131 patients (79 BMP-2, 52 ICBG), follow-up minimum 24 months, p less than 0.001", "value": 96, "unit": "%"}, {"measurement": "SF-36 physical component score and low-back and leg pain score", "setting": "according to the Oswestry Disability Index", "value": "showed improvement"}, {"measurement": "blood loss", "setting": "in vivo", "value": "less blood loss"}]}
